Test results published in ChEMBL document CHEMBL5252594.

Columns and labels:
[1] = Toxicity against pupae stage Aedes aegypti Rockefeller
[2] = Toxicity against adult stage Aedes aegypti Rockefeller; details: in vivo

Question: Which Activity [1] does the source give for `O=C(CC[N+](=O)[O-])OC[C@H]1O[C@@H](OC(=O)CC[N+](=O)[O-])[C@H](OC(=O)CC[N+](=O)[O-])[C@@H](O)[C@@H]1O` here?
Answer: The Activity was “Non-Toxic”.

Question: What about the Activity [2] of the same molecule?
Answer: The Activity was “Non-Toxic”.

Question: With `O=C(CC[N+](=O)[O-])OC[C@H]1O[C@@H](OC(=O)CC[N+](=O)[O-])[C@H](OC(=O)CC[N+](=O)[O-])[C@@H](OC(=O)CC[N+](=O)[O-])[C@@H]1O` as the molecule, how does the Activity [1] read?
Answer: The Activity was “Non-Toxic”.

Question: And the Activity [2]?
Answer: Its Activity is “Non-Toxic”.
